Common to all, as to assay: purified protein
In one data set the test system is C=C(C)CCOP(=O)(O)O. As to conditions: co-substrate ATP, 10 mM MgCl2, pH 7.5, 37 °C.
Data set [1] relates to C[C@@H]1O[C@@H]1P(=O)(O)O. As to conditions: co-substrate ATP, 10 mM MgCl2, pH 7.5, 37 °C.
Data set [2] deals with Nc1ncnc2c1ncn2[C@@H]1O[C@H](COP(=O)(O)OP(=O)(O)OP(=O)(O)O)[C@@H](O)[C@H]1O. The following applies: co-substrate IP, 10 mM MgCl2, pH 7.5, 37 °C.

“THA IPK (isopentenyl phosphate kinase) (Thermoplasma acidophilum DSM 1728; K204A)”: in the data set on C=C(C)CCOP(=O)(O)O, the Michaelis-Menten constant (Km) (as a rule, the concentration of substrate that gives half-maximal velocity) was found to be 2.8 ± 0.3 µM; the catalytic constant (kcat) (in general, the maximal rate divided by the concentration of active sites) is 7.7 ± 0.2 s⁻¹; the kcat/Km (in general, the second-order rate constant that governs catalysis at low substrate concentration) was 2.8e+06 M⁻¹ s⁻¹. Besides, in data set [1], the Km result is recorded as “(1.1 ± 0.1) × 10^4 μM”, the kcat result was “(3 ± 0.1) × 10^−2 s^−1” and the kcat/Km stood at 2.5 M⁻¹ s⁻¹. In data set [2], the Km was determined as 6.9 ± 0.6 µM and the kcat was found to be 7.7 ± 0.2 s⁻¹.

The values above are taken from PMC3273622.
